Values of other authors, collected in patent publication US10058550B2, “Methods of treating heart failure” (priority 2015, dated 2018).

Conditions: cited from earlier work

Apelin-13
plasma half-life: < 5 min
